# According to patent US11147816B2, “Composition for inducing differentiation and protection of neural stem cells and method for inducing neuro-regeneration using the same composition” (GENUV Inc., priority 2016, dated 2021):
# Test system: mouse adult neural stem cells
# Details: 10 μM amyloid-beta; each at its optimal concentration (AS703026 10, AZD8330 1, PD318088 1, binimetinib 10, refametinib 1, PD0325901 10, RO5126766 10 μM); day 2
smiles,measurement,value
O=C(NOC[C@H](O)CO)c1ccc(F)c(F)c1Nc1ccc(I)cc1F [PD0325901],cell protection and NSC differentiation under amyloid-beta cytotoxicity,provided cell protection and induced the differentiation of NSC
